Test results published in patent US6500222B2, “Diureides and their use” (priority 1999, dated 2002).

Tested on: mustard seedlings (Sinapis alba, 'Maxi')
Assay: Mustard seedling test on plant tolerance, growth and yield

Measured: Vitality (%) 100% optimal growth 0% no growth

bis(N′-potassium sulfamate)succinic diureide
50%: N fertilization 100 mg/container, DAT 13 | N fertilization 200 mg/container, DAT 13 | N fertilization 400 mg/container, DAT 13
100%: N fertilization 100 mg/container, DAT 9 | N fertilization 200 mg/container, DAT 9 | N fertilization 400 mg/container, DAT 9
